# Permeability data for macrocyclic peptides

Collected by the curators of CycPeptMPDB (Li et al. 2023) from Rand et al. 2012, doi:10.1039/c2md20203d.

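Conditions beyond the assay type are not listed; see the original paper. The list need not hold all peptides of the study. Peptides that the database sets to -10, its floor, are left out.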

RRCK values come from monolayers of low-efflux MDCK cells.
Permeability is in 10^-6 cm/s, converted from the database's log10 values; higher is more permeable.

- CC(C)C[C@@H]1NC(=O)[C@H](Cc2ccc(O)cc2)N(C)C(=O)[C@H]2CCCN2C(=O)[C@H](CC(C)C)NC(=O)[C@H](CC(=O)N2CCOCC2)N(C)C(=O)[C@@H](CC(C)C)N(C)C1=O: RRCK 0.63 × 10^-6 cm/s
- CC(C)C[C@@H]1NC(=O)[C@H](Cc2ccc(O)cc2)N(C)C(=O)[C@H]2CCCN2C(=O)[C@H](CC(C)C)NC(=O)[C@H](CCCCN)N(C)C(=O)[C@@H](CC(C)C)N(C)C1=O: RRCK 0.28 × 10^-6 cm/s
- CC(C)C[C@@H]1NC(=O)[C@H](Cc2ccc(O)cc2)N(C)C(=O)[C@H]2CCCN2C(=O)[C@H](CC(C)C)NC(=O)[C@H](CC2CCCCC2)N(C)C(=O)[C@@H](CC(C)C)N(C)C1=O: RRCK 0.18 × 10^-6 cm/s
- CC(C)C[C@@H]1NC(=O)[C@H](Cc2ccc(O)cc2)N(C)C(=O)[C@H]2CCCN2C(=O)[C@H](CC(C)C)NC(=O)[C@H](Cc2c[nH]c3ccccc23)N(C)C(=O)[C@@H](CC(C)C)N(C)C1=O: RRCK 0.22 × 10^-6 cm/s